Laboratory results from patent EP0847397B1, “WATER-SOLUBLE C-RING ANALOGUES OF 20 (S)-CAMPTOTHECIN” (DR. REDDY'S RESEARCH FOUNDATION, priority 1996, dated 1997).

Amino acid sequences for entries named in this document (tags omitted). Residues count along the entry.
UniProt P02768, 25-609: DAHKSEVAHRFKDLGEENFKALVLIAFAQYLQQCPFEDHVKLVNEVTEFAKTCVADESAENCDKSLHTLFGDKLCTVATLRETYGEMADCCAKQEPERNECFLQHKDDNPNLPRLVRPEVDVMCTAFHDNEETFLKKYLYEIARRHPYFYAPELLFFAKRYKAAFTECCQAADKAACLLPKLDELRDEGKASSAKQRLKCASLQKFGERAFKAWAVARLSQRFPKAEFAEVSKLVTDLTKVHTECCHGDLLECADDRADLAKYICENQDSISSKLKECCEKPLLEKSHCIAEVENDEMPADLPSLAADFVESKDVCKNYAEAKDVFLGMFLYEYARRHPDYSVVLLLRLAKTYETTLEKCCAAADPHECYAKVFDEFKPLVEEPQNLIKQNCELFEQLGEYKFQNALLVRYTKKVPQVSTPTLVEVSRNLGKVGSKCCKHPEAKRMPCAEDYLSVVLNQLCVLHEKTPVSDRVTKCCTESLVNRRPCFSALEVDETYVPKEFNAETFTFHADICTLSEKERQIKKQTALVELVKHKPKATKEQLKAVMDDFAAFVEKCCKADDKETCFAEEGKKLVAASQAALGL

Tests used:
[1] = test system: NCI's 60 human tumor cell line assay; experiment: cells; assay type: cell-based; conditions: 60 cell, 48 h, read-out: IC50 (mean GI50 against NCI's 60 human tumor cell line assay)
[2] = test system: CCRF - CEM; experiment: In vitro activity against AIDS related Lymphoma (ARL) cell lines (NCI protocol); assay type: cell-based; conditions: Homo sapiens, ARL cell line
[3] = test system: RL; experiment: as above; assay type: cell-based; conditions: Homo sapiens, ARL cell line
[4] = test system: SU-DHL-7; experiment: as above; assay type: cell-based; conditions: Homo sapiens, SU-DHL-7, ARL cell line
[5] = molecular target: Human Serum Albumin (Homo sapiens, UniProt P02768); conditions: in the presence of HSA at 37°C, compared with 20 (S) camptothecin and 9-aminocamptothecin; cited from earlier work

Compound	mean GI50 [1] [nM]	IC (TGI) ([2]; 48 h) [nM]	GI50 [2] [nM]	IC (TGI) ([3]; 48 h) [nM]	GI50 [3] [nM]	IC (TGI) ([4]; 48 h) [nM]	GI50 [4] [nM]	percentage (%) of lactone form at equilibrium [5]
CCc1c2c(nc3ccccc13)-c1cc3c(c(=O)n1C2OCCO)COC(=O)[C@]3(O)CC (some centres unmarked) [Example 32, 5-(2'-Hydroxyethoxy)-7-ethylcamptothecin]	4780	1830	318	3940	463	3510	609	
CCc1c2c(nc3ccc(O)cc13)-c1cc3c(c(=O)n1C2)COC(=O)[C@]3(O)CC [SN-38, 7-ethyl-10-hydroxycamptothecin]								higher percentage (%) of lactone form at equilibrium
